Laboratory results taken from PubChem BioAssay AID1347080 (ICCB-Longwood Screening Facility, Harvard Medical School, 2019).
The entries are a selection whose mix differs from that of the whole data set. Calls of active or inactive are those of the source.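 How the source made its calls: active means compounds whose cell count with miR-34 switched on is under 0.7 times the count with it off; inactive means the rest.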

Assay: viability loss with induced miR-34 in A549 – imaging, A549 dox-inducible miR-34, nuclei and caspase counts, primary screen (AID 1347080); further: test concentration not given here
Settings: A549 miR-34 inducible, Hoechst nuclei count, 48 h; stronger effect = lower value; cell number ratio, induced over uninduced

Row | SMILES | fold change
1 | CN(C(=O)Cc1ccc(Cl)c(Cl)c1)[C@@H]1CCCC[C@H]1N1CCCC1 | inactive: 0.982
2 | CN(C(=O)Cc1ccccc1)[C@@H]1CC[C@]2(CCCO2)C[C@H]1N1CCCC1 | inactive: 0.952
3 | NC(=O)Nc1ccc([As](=O)(O)O)cc1 | inactive: 0.842
4 | CN(C(=O)Cc1ccc(Cl)c(Cl)c1)[C@@H]1CC[C@]2(CCCO2)C[C@H]1N1CCCC1 | inactive: 1.01
5 | CN(C(=O)Cc1ccc(Cl)c(Cl)c1)[C@@H]1CCCC[C@@H]1N1CCCC1 | inactive: 1.05
6 | O=C(OC1CN2CCC1CC2)c1ccccc1 (stereo not drawn) | inactive: 0.973
7 | O=C(O[C@H]1CN2CCC1CC2)C1NCc2ccccc2[C@@H]1c1ccccc1 (stereo partly drawn) | inactive: 0.93
8 | O=P(O)(O)F | inactive: 0.927
